Target: Neutrophil collagenase (Homo sapiens, UniProt P22894)

Chains of the proteins cited; added tags and fusions are not shown. Lines headed by an entry give the natural chain unless they say otherwise; changes in a name come on top.
UniProt P22894: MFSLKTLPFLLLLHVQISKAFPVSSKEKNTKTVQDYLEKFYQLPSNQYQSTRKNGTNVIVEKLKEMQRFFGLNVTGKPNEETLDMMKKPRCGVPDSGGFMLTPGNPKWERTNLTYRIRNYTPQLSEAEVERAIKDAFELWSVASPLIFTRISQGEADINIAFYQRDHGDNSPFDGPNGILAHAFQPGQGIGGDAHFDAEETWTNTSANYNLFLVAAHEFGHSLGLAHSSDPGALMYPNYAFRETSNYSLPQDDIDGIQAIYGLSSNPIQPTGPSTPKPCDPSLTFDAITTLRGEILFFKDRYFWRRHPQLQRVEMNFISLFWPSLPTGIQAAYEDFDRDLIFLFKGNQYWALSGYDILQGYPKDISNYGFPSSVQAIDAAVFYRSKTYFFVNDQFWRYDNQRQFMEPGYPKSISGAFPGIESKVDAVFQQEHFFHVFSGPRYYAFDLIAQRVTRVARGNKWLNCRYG

IC50: 0.7 nM
SMILES: COc1ccc(S(=O)(=O)N2CCSC(C)(C)[C@@H]2C(=O)NO)cc1

Source: ChEMBL document CHEMBL1132690, “Design, synthesis, and biological evaluation of potent thiazine- and thiazepine-based matrix metalloproteinase inhibitors” (J Med Chem, 1999)
